Assay results reported in US20090099029.

target: Bovine, dephosphorylated, Myelin Basic Protein (MBP) (UniProt P02687)

Question: CDK2/cyclin A was tested. Which “MBP Kinase Activity” value did it give?
Answer: Strong

Question: Which “MBP Kinase Activity” value does the source give for DYRK1A here?
Answer: Negative

Question: How did the “MBP Kinase Activity” value turn out when PRKACA(PKA) was run?
Answer: Negative

Question: With SRC as the substance, how does the “MBP Kinase Activity” value read?
Answer: Strong

Question: SYK was tested. Which “MBP Kinase Activity” value did it give?
Answer: Negative
